The numbers were not newly measured in patent publication US20080033027A1, “Drug combination pharmaceutical compositions and methods for using them” (VICUS THERAPEUTICS SPE 1, LLC, priority 2005, published 2008), which cites them from elsewhere.

Chains of the proteins cited; added tags and fusions are not shown.
UniProt P08588, whole entry: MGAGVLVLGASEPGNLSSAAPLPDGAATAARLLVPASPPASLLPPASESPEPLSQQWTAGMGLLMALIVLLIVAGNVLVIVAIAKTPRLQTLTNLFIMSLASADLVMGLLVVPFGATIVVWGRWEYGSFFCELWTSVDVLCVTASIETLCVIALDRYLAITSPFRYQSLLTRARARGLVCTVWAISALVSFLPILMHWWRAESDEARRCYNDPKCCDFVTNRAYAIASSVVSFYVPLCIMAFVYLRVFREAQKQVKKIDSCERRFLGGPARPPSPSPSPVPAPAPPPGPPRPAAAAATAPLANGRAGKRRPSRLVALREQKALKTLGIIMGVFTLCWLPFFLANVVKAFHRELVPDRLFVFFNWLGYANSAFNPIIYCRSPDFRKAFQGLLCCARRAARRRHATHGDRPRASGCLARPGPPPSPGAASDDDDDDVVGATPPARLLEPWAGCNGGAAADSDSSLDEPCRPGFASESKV

The target in one data set is beta 1 receptor subtypes (Homo sapiens, UniProt P08588). The conditions noted are these: higher than propranolol.

On to `CC(C)NCC(O)COc1ccc(CC(N)=O)cc1` (stereo not shown) [Atenolol], for which, where the note is “in vivo”, the Biotransformation entry is given as “Hepatic” and the “Removable by Hemodialysis” value is recorded as “Yes”. The route of elimination result (stated in the text) was “eliminated primarily by the kidneys through the urine”. Besides, at beta 1 receptor subtypes, the “relative activity against beta 1 receptor subtypes as compared to a nonselective beta blocker such as propranolol” value is “approximately 16 fold”.
